Values quoted from earlier work in US12336993B2, “Therapeutic benefit of suboptimally administered chemical compounds” (priority 2013, dated 2025).

Settings: at high dosages

Q: With Oc1ncc(N(CCCl)CCCl)c(O)n1 [uracil mustard, 5-[bis(2-chloroethyl)amino]-1H-pyrimidine-2,4-dione] as the molecule, how does the Dose-limiting toxicities read?
A: myelosuppression or gastrointestinal effects
